From patent US20030026781A1, “Compositions and methods for regulating endogenous inhibitor of ATP synthase, including treatment for diabetes” (MitoKor, priority 1999, published 2003) come the findings set out here.

Protein sequences, listed by entry. Tags and fused reporters are not part of them. Lines headed by an entry give the natural chain unless they say otherwise; changes in a name come on top.
UniProt P10719: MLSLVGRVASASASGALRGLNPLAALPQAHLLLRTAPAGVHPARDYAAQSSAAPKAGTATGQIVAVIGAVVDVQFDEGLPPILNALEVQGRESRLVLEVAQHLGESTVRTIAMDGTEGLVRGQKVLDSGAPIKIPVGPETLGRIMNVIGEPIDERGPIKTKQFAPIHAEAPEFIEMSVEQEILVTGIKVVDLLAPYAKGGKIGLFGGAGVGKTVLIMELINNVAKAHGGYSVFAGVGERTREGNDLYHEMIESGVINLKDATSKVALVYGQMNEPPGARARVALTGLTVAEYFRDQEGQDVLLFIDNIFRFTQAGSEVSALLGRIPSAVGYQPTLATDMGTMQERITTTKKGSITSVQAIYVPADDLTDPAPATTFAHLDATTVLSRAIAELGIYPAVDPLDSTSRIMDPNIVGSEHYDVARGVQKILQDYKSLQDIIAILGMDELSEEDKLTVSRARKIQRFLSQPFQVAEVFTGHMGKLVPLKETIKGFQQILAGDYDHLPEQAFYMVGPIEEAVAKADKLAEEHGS
UniProt P15999: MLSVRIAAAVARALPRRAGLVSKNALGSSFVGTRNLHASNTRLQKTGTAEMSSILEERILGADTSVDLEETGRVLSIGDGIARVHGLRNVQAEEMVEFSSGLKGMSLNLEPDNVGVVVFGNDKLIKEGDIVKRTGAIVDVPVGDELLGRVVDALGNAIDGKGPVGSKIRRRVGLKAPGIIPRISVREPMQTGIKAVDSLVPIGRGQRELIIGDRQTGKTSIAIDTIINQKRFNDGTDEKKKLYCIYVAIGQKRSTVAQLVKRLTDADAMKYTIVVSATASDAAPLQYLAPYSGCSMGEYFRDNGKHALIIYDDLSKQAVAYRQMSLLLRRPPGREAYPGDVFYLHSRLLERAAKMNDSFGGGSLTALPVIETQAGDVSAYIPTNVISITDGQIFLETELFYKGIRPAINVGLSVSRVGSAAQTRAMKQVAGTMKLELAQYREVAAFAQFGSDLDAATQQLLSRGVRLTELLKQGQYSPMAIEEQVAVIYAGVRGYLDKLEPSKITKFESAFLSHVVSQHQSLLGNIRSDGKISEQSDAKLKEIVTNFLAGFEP

The target of this assay is T1, mitochondrial ATP synthase (ETC Complex V) in rat liver submitochondrial particles (Rattus norvegicus, UniProt P10719+P15999).
T1 construct: rat liver submitochondrial particles (SMP) prepared from male Sprague-Dawley rat livers; from tissue; host or cells: male Sprague-Dawley rat liver, submitochondrial particles (method of Walker et al. 1995)
In words: Oligomycin-sensitive ATPase (ATP hydrolase) activity in rat liver submitochondrial particles (SMP). The assay is classed as biochemical. To be noted: preincubation pH 6.7, values omitted from FIG. 12, read-out: IC50 for inhibition of SMP ATPase (dose-response). How it is done: The IF1(42-58) polypeptide was also tested for its ability to inhibit the F0-F1-ATPase in rat ASMPs (alkaline submitochondrial particles) prepared as in the preceding Example. […] ATP hydrolase activity was expressed as the percent of detectable activity in the absence of added IF1-containing fusion protein, and the level of oligomycin-inhibitable activity was also determined (FIG. 8).
The effects of the IF1 peptides on ATPase activity were determined by assaying ATPase in rat liver submitochondrial particles (SMP) prepared from male Sprague-Dawley rat livers according to the method of Walker et al. (1995 Meth. Enzymol. 260:163-190). […] Louis, Mo., unless otherwise noted) for 10 min at room temperature. The mixtures were then added to assay buffer (50 mM Tris-HCl, 3.3 mM MgCl2, pH 8.0) in a 96-well plate and ATPase activity was initiated by the addition of 1 mM ATP, 1 mM phophoenolypyruvate, 3 U/ml pyruvate kinase, 10 U/ml lactate dehydrogenase and 0.3 mM NADH. Reactions were monitored by recording absorbance in “kinetic read” mode at 340 nm for 10 min at 30° C. in a termperature-controlled Spectromax Plus-384™ 96-well plate reader (Molecular Devices, Inc., Sunnyvale, Calif.) according to the manufacturer's instructions. In this mode, the plate reader recorded an absorbance value for each well at approximately nine-second intervals. […]

The IC50 is the concentration needed to halve the response being measured. As for `CC[C@H](C)[C@H](NC(=O)[C@@H](N)CO)C(=O)N[C@@H](CCCNC(=N)N)C(=O)N[C@@H](CCC(=O)O)C(=O)N[C@@H](C)C(=O)NCC(=O)NCC(=O)N[C@@H](C)C(=O)N[C@@H](Cc1ccccc1)C(=O)NCC(=O)N[C@@H](CCCCN)C(=O)N[C@@H](CCCNC(=N)N)C(=O)N[C@@H](CCC(=O)O)C(=O)N[C@@H](CCCCN)C(=O)N[C@@H](C)C(=O)N[C@@H](CCC(=O)O)C(=O)N[C@@H](CCC(=O)O)C(=O)N[C@@H](CC(=O)O)C(=O)N[C@@H](CCCNC(=N)N)C(=O)N[C@@H](Cc1ccc(O)cc1)C(=O)N[C@@H](Cc1ccccc1)C(=O)N[C@@H](CCCNC(=N)N)C(=O)N[C@@H](CCC(=O)O)C(=O)N[C@@H](CCCCN)C(=O)N[C@H](C(=O)N[C@@H](CCCNC(=N)N)C(=O)N[C@@H](CCC(=O)O)C(=O)N[C@@H](CCC(N)=O)C(=O)N[C@@H](CC(C)C)C(=O)O)[C@@H](C)O` [14-42], the IC50 was more than 2.6 µM.

Regarding `CC[C@H](C)[C@H](NC(=O)[C@@H](N)CO)C(=O)N[C@@H](CCCNC(=N)N)C(=O)N[C@@H](CCC(=O)O)C(=O)N[C@@H](C)C(=O)NCC(=O)NCC(=O)N[C@@H](C)C(=O)N[C@@H](Cc1ccccc1)C(=O)NCC(=O)N[C@@H](CCCCN)C(=O)N[C@@H](CCCNC(=N)N)C(=O)N[C@@H](CCC(=O)O)C(=O)N[C@@H](CCCCN)C(=O)N[C@@H](C)C(=O)N[C@@H](CCC(=O)O)C(=O)N[C@@H](CCC(=O)O)C(=O)N[C@@H](CC(=O)O)C(=O)N[C@@H](CCCNC(=N)N)C(=O)N[C@@H](Cc1ccc(O)cc1)C(=O)N[C@@H](Cc1ccccc1)C(=O)N[C@@H](CCCNC(=N)N)C(=O)N[C@@H](CCC(=O)O)C(=O)N[C@@H](CCCCN)C(=O)N[C@H](C(=O)N[C@@H](CCCNC(=N)N)C(=O)N[C@@H](CCC(=O)O)C(=O)N[C@@H](CCC(N)=O)C(=O)N[C@@H](CC(C)C)C(=O)N[C@@H](C)C(=O)O)[C@@H](C)O` [14-43], the 50% inhibitory concentration (IC50) is more than 1.5 µM.
